Results published in patent US9573956B2, “Compounds as dual inhibitors of phosphodiesterases and histone deacetylases” (FUNDACIÓN PARA LA INVESTIGACIÓN MÉDICA APLICADA, priority 2013, dated 2017).

The chains behind the UniProt entries cited, without tags or fusion partners. Residues count along the entry.
UniProt O76083, 1-533 isoform O76083-2: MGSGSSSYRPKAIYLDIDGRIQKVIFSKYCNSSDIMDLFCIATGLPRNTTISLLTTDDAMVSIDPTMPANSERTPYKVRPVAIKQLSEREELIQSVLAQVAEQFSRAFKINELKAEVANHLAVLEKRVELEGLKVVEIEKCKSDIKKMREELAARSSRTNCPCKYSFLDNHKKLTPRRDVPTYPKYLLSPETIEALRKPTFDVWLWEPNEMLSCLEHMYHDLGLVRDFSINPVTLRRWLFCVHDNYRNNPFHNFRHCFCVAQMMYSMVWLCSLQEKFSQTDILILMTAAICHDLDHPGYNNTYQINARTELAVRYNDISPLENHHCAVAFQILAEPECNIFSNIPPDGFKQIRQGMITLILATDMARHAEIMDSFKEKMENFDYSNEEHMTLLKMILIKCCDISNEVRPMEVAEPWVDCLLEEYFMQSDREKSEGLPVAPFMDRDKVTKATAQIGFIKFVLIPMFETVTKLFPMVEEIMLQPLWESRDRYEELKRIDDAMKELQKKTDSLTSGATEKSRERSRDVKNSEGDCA

Target: T1, PDE9A isoform b (Homo sapiens, UniProt O76083)
T1 construct: they are full-length with N-terminal GST tag; GST (N); purchased BPS Biosciences 60090; host or cells: baculovirus infected Sf9 cells
Experiment: PDE enzyme activity assay (HTRF cGMP), PDE9A
Type: biochemical
Conditions: recombinant enzyme; read-out: PDE9A inhibition (IC50)

CCCc1nn(C)c2c(=O)[nH]c(-c3cc(S(=O)(=O)N4CCN(C)CC4)ccc3OCC)nc12 [Sildenafil, reference compound]
pIC50: 5.00 to 6.00

pIC50: −log10 of the molar value.
